Consider two compounds from ChEMBL document CHEMBL2046406 (J Med Chem, 2012).

Sequences of proteins named here, by UniProt entry; tags and fusion partners are left off.
UniProt P35372, whole entry: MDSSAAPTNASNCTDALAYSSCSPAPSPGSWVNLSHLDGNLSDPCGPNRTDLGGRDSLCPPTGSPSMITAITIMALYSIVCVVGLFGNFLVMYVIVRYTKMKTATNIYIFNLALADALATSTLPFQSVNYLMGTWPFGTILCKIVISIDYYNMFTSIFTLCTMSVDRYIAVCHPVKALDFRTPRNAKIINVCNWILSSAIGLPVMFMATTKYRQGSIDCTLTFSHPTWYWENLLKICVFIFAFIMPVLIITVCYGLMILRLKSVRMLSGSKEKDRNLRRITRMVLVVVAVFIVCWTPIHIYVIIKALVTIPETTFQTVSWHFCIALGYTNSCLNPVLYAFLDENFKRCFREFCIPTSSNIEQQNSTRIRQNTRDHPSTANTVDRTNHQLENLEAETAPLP

As usually defined, the Emax is the greatest response seen or fitted, relative to the assay's reference.

For experiment [1], the species on record is Homo sapiens. In words: Selectivity index, ratio of inhibition of human delta opioid receptor to inhibition of human mu opioid receptor.
Experiment [2] is filed under the species Homo sapiens. In words: Selectivity index, ratio of inhibition of human kappa opioid receptor to inhibition of human mu opioid receptor.
Experiment [3] deals with T1, Mu-type opioid receptor (Homo sapiens, UniProt P35372). In words: Agonist activity at human mu opioid receptor expressed in CHO cells assessed as stimulation of […]GTPgammaS binding after 60 mins by scintillation counting relative to control. In kind it is functional, cell-based. In a few lines:
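Membranes from CHO cells stably expressing human KOR (15 μg protein per tube) or MOR (7.5 μg protein per tube). Nonspecific binding with 10 μM GTPγS. Filtration, then scintillation counting. Triplicate, at least three experiments.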
(In general: GTPγS is a poorly hydrolysed GTP analogue; its binding reports G protein activation.)

The target in experiment [4] is T1, Mu-type opioid receptor. In words: Antagonist activity at human mu opioid receptor expressed in CHO cells assessed as inhibition of DAMGO-induced […]GTPgammaS binding after 60 mins by scintillation counting relative to control. In kind it is functional, cell-based.

The source made the active and inactive calls. The calls are words filed in the database; no cut-off is given here.

With `CN1CC[C@]23c4c5ccc(NCc6cccc(O)c6)c4O[C@H]2[C@@H](O)C=C[C@H]3[C@H]1C5`, the Selectivity ratio in the experiment filed under Homo sapiens [1] is 130; in the experiment listed under Homo sapiens [2], over 1400. Further, at Mu-type opioid receptor [3], the Emax stood at 110%. Besides, the Imax result at Mu-type opioid receptor [4] was “inactive”.

As to `CN1CC[C@]23CCCC[C@H]2[C@H]1Cc1ccc(NCc2cccc(O)c2)cc13`, the figures for the Selectivity ratio in the experiment filed under Homo sapiens [1] and in the experiment listed under Homo sapiens [2] were 24 and 1700, respectively. In addition, the Emax at Mu-type opioid receptor [3] was determined as 85%. Also, the Imax entry on Mu-type opioid receptor [4] was “inactive”.
